# Where two headings read alike, the source gives them in different places.
# Chains of the proteins cited; added tags and fusions are not shown.
# UniProt P23975, whole entry: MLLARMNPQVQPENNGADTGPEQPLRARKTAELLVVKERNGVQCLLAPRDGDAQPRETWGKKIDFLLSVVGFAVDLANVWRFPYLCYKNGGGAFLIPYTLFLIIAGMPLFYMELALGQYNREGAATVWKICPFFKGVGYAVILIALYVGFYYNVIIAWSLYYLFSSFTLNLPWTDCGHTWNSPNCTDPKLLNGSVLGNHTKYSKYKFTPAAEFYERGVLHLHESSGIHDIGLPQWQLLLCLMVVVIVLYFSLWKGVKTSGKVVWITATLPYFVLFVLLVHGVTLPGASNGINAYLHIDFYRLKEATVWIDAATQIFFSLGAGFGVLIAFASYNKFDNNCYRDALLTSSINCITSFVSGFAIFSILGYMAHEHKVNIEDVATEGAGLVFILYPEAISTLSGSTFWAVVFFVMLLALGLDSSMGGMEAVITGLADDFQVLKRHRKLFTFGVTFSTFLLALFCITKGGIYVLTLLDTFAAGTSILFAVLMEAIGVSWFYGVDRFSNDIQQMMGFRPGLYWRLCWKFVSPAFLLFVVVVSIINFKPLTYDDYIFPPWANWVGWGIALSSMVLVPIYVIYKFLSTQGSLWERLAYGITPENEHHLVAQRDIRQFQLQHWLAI
# Legend:
# [1] = biological target: T1, human norepinephrine transporter (hNET) (Homo sapiens, UniProt P23975)
# [2] = biological target: T1, human norepinephrine transporter (hNET); experiment: biochemical
SMILES,Kd ([1]; read-out: Kd (nM) hNET),binding to hNET (in words) [1],Kd [2]
"CNCC(c1ccc2ccccc2c1)C(O)c1ccccc1 (racemic) [Compound A, (2RS,3RS)-N-methyl-3-hydroxy-2-(2′-naphthyl)-3-phenylpropylamine, reference compound]",0.3 nM,,
"CN(C)CC(c1ccc2ccccc2c1)C(O)C1CCCCC1 (racemic) [PRC025, (2RS,3SR)-N,N-dimethyl-3-cyclohexyl-3-hydroxy-2-(2′-naphthyl)propylamine]",,strong binding,12.5 nM

# From patent US20080200556A1, “Amine Compounds And Inhibiting Neurotrasmitter Reuptake” (MAYO FOUNDATION FOR MEDICAL EDUCATION AND RESEARCH, priority 2004, published 2008)
